# Experimental data: patent publication US10336675B2, “Biaromatic vitamin D analogs” (DSM IP ASSETS B.V., priority 2015, dated 2019)
# Amino acid sequences for entries named in this document (tags omitted). Residues count along the entry.
# UniProt P11473, 127-423 limits assumed: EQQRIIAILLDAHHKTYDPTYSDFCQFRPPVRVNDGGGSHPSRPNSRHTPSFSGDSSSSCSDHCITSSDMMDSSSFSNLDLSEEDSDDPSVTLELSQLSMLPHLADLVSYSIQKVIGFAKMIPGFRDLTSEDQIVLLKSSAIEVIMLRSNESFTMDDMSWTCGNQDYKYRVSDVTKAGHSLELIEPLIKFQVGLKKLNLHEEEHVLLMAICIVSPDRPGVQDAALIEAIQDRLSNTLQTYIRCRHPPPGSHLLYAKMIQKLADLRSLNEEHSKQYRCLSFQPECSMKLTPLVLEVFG
# Target: human vitamin D receptor (VDR) (Homo sapiens, UniProt P11473)
# Test: Human vitamin D receptor (VDR) agonist activity: GAL4-VDR LBD luciferase transactivation assay in transiently transfected HEK293 cells
# Details: read-out: Effective concentrations of half maximal activation (EC50), VDR LBD-GAL4 DBD fusion, pFR-Luc luciferase reporter, 16 h incubation
smiles,measurement,value
CC/C(=C\C=C\C(O)(CC)CC)c1cccc(CCc2ccc(CO)c(CO)c2)c1,pEC50,7.13

# pEC50: −log10 of the molar value.
